The list shows a part of the results, in another mix than the full data. Calls of active or inactive are those of the source.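 Rule for the calls: active = activation above the mean activation of all tested compounds plus 3 SD, per screening run (cut at about 20% in these data); inactive = the rest.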

Sequences of proteins named here, by UniProt entry; tags and fusion partners are left off.
UniProt P37288, whole entry, looked up: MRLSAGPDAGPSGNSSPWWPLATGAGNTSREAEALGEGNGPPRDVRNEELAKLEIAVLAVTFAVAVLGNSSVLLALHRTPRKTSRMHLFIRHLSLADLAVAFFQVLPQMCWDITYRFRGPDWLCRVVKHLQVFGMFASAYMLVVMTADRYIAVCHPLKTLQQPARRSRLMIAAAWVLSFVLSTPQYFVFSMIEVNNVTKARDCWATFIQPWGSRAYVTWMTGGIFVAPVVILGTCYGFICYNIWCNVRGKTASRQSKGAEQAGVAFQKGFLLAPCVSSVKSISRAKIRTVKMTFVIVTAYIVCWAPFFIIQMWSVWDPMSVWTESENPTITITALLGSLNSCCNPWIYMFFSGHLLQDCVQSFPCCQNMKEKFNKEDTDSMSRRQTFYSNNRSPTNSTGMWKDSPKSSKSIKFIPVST

In the experiment the target is Vasopressin V1a receptor (Homo sapiens) (UniProt P37288). Description: V1R activation via calcium rise – fluorescence, CHO-V1R cells, counter-screen for OXTR agonist project, primary screen (AID 2797).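 Note: signal is peak over basal fluorescence ratio across a 100 second FLIPR read.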 Particulars: Fluo-8 calcium fluorescence, agonist mode, at 3 µM, active compounds read high, 0% DMSO, 100% 3 nM vasopressin. On the technique in general: The purpose of a counterscreen is to sort out artefacts and off-target activity.
Regarding `CC(C)c1ccc(OP(=O)(Nc2ccccn2)Oc2ccccc2F)cc1` (configuration not stated), the activation was inactive: -1.35%.
For `O=[N+]([O-])c1cc([N+](=O)[O-])c(-c2ccn[nH]2)s1` the value was inactive: 0.71%; for `CCN(CC)C(=S)SC(NC=O)C(Cl)(Cl)Cl` (configuration not stated), inactive: 1.48%.
As for `CC(C)NC(=O)NP(=O)(Oc1ccccc1)Oc1ccccc1`, the figure is inactive: 1.16%; as for `Cc1c2c(nc3ccccc13)SC(C(Cl)Cl)C2` (configuration not stated), inactive: -1.51%; as for `Cc1cc(=O)[nH]c(N[N+](=O)[O-])n1`, inactive: 1.44%.
As for `O=C(OC1CN2CCC1CC2)C12CC3CC(CC(C3)C1)C2` (configuration not stated), the figure is inactive: 1.5%; as for `COc1cc(I)ccc1[As](=O)(O)O`, inactive: 0.06%.
Regarding `COc1ccc2nc(NP(=O)(c3ccccc3)c3ccccc3)sc2c1`, the activation is inactive: -0.82%.
Turning to `COc1ccc(N/C(=N/P(=O)(N2CCOCC2)N2CCOCC2)N2CCOCC2)cc1`, the activation is inactive: 0.87%.
For `O=C(OC1CN2CCC1CC2)c1ccc(Cl)cc1` (configuration not stated) the value was inactive: -0.62%; for `CS(=O)(=O)c1ccc(Cl)c(NC(=O)COC(=O)C(O)(c2ccccc2)c2ccccc2)c1`, inactive: 15.8%; for `COc1cc(C(=O)NCC2(N3CCOCC3)CCCCC2)cc(Cl)c1OC(C)C`, inactive: -1.27%.
Turning to `O=[As](O)(O)c1cccnc1`, the activation is inactive: -0.22%.
As for `O=[As](O)(c1cccc(O)c1)c1cccc(O)c1`, the activation is inactive: 1.4%.
For `Cc1cccc(OCC(=O)OC2CN3CCC2CC3)c1` (configuration not stated) the value was inactive: 0.64%.
Take `Cc1ccc(NCCc2c([N+](=O)[O-])cc([N+](=O)[O-])cc2[N+](=O)[O-])cc1`: the activation was inactive: -1.56%.
In the case of `Nc1cccc2c([As](=O)(O)O)cccc12`, the activation is inactive: 14.7%.
As for `CCCOP(=S)(Nc1nc(N)cc(=O)[nH]1)OCCC`, the figure is inactive: -0.36%; as for `CCOP(=O)(Nc1cccc2ccccc12)OCC`, inactive: 1.02%; as for `COc1cc(C2NCCC3(OCCO3)C2(C)C)cc(OC)c1OC` (configuration not stated), inactive: 0.2%.
Take `O=P(Nc1nccs1)(c1ccccc1)c1nc2ccccc2s1` (configuration not stated): the activation is inactive: 0.94%.
For `O=P(Nc1nccs1)(Oc1ccccc1)Oc1ccccc1` the value was inactive: 0.77%; for `CCOP1(=S)c2c(C)nn(CCC#N)c2N=C(c2ccccc2F)N1C` (configuration not stated), inactive: -0.68%; for `CS(=O)(=O)c1cc([N+](=O)[O-])c2no[n+]([O-])c2c1`, inactive: 0.85%.
For `Nc1ccccc1[As](=O)(O)c1ccccc1` the value was inactive: -0.44%.
As for `O=C(O)COc1ccc([As](=O)(O)O)cc1[N+](=O)[O-]`, the figure is inactive: 0.47%; as for `NC(=O)Nc1ccc([As](=O)(O)O)cc1`, inactive: -0.47%; as for `CN(C(=O)Cc1ccccc1)[C@@H]1CC[C@]2(CCCO2)C[C@H]1N1CCCC1`, inactive: 0.66%.
Turning to `CCOP1(=S)c2c(C)nn(CCC#N)c2N=C(c2ccc(F)cc2)N1C` (configuration not stated), the activation was inactive: -1.25%.
For `N#CCCN(C(=O)COC(=O)C(O)(c1ccccc1)c1ccccc1)c1ccc(F)cc1` the value was inactive: 2.66%.
For `CN(C(=O)Cc1ccc(Cl)c(Cl)c1)[C@H]1CC[C@@]2(CCCO2)C[C@@H]1N1CCCC1` the value was inactive: 1.16%.
As for `CN(C)C(=O)c1cc([N+](=O)[O-])cc2c1-c1c(cc([N+](=O)[O-])cc1[N+](=O)[O-])C2=O`, the figure is inactive: -1.87%; as for `O=[N+]([O-])c1ccc2c(c1)nnn2O`, inactive: 0.07%; as for `CC1CCC(C(C)C)C(OP(=O)(Nc2ccccn2)c2ccccc2)C1` (configuration not stated), inactive: 1.22%.
Consider `Cc1ccc(C(=O)OC2CN3CCC2CC3)cc1` (configuration not stated), for which the activation is inactive: -0.15%.
As for `Cc1nn(-c2ccccc2)c2c1P(=O)(N1CCOCC1)N(C)C(c1ccccc1)=N2` (configuration not stated), the figure is inactive: -0.43%.
As for `CN(C)C1(CNC(=O)c2ccc(S(C)(=O)=O)cc2)CCCCC1`, the figure is inactive: -0.03%; as for `O=C(/C=C/c1ccccc1)OC1CN2CCC1CC2` (configuration not stated), inactive: -0.93%.
As for `O=P1(Nc2ncccn2)COc2ccccc2OC1`, the figure is inactive: 0.45%.
For `Nc1cccc([As](=O)(O)c2ccccc2)c1`, the activation was inactive: 1.67%.
As for `O=P1(Nc2ccc(Br)cn2)COc2ccccc2OC1`, the figure is inactive: 1.24%.
For the molecule `NS(=O)(=O)c1cccc(NC(=O)COC(=O)C(O)(c2ccccc2)c2ccccc2)c1`, the activation is inactive: 0.56%.
Regarding `Cc1ccc(OCC(=O)OC2CN3CCC2CC3)cc1` (configuration not stated), the activation is inactive: 2.19%.
Take `O=[As](O)(c1cccs1)c1cccs1`: the activation was inactive: 0.8%.
As for `CCOP(=O)(NC(=NC(C)c1ccccc1)NC(C)c1ccccc1)OCC` (configuration not stated), the figure is inactive: -0.04%.
As for `O=P1(Nc2ccccn2)COc2ccccc2OC1`, the figure is inactive: -0.05%; as for `CCC1=CC2Cc3nc4ccc(Cl)cc4c(N)c3C(C1)C2` (configuration not stated), inactive: 3.21%.
Consider `CN(CCCl)Cc1cc(Cl)c(NC2=NCCN2)c(Cl)c1`, for which the activation is inactive: -0.06%.
For `CCOP(=O)(Nc1ccc(C)cn1)OCC` the value was inactive: 0%.
As for `CC(C)(C)C(=O)NC(Sc1ncccn1)C(Cl)(Cl)Cl` (configuration not stated), the figure is inactive: -0.75%; as for `Clc1n[nH]nc1-c1nn[nH][15n]1`, inactive: 0.48%.
`COc1ccccc1CNC(=O)COC(=O)C(O)(c1ccccc1)c1ccccc1`: the activation is inactive: 0.13%.
As for `CC(C)/C=N\N=C(\N)N[N+](=O)[O-]`, the figure is inactive: 0.68%.
As for `CN(C(=O)Cc1ccc(Cl)c(Cl)c1)[C@@H]1CCCC[C@H]1N1CCCC1`, the figure is inactive: -0.05%.
For `CC1(CBr)Cn2c(nc3ccccc3c2=O)S1` (configuration not stated) the value was inactive: 0.41%.
Turning to `O=[As](O)(c1ccccc1Br)c1ccccc1Br`, the activation was inactive: 0.25%.

For the origin of these results see PubChem BioAssay AID2797 (The Scripps Research Institute Molecular Screening Center, 2010).
